The record followed here is PubChem BioAssay (EPA / NIEHS).

A word on the AC50: it is the concentration giving half of the maximal activity seen.

Read-out in assay [1]: Interleukin 17F (IL17F), IL17F (gene 112744)
The assay is described as follows: BSK_BT_xIL17F: BioMAP Diversity Plus: BT Assay for Interleukin 17F (IL17F) Biomarker Activity (AID 2284243). Particulars: primary human B cells with PBMC. A digest of the protocol:
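Secreted IL-17F, read on LumineX xMAP beads, was taken as the endpoint. Cultures combined human B cells and peripheral blood mononuclear cells, sampled 24 hours after dosing, with DMSO serving as negative control.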

Read-out in assay [2]: Actin alpha 1 (ACTA1), ACTA1 (gene 58)
The assay is described as follows: BSK_MyoF_ACTA1: BioMAP Diversity Plus: MyoF Assay for Actin alpha 1 (ACTA1) Biomarker Activity (AID 2284244). To be noted: primary human lung fibroblasts. The procedure, abridged:
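ELISA read-out of a-SMA in primary human lung fibroblast cultures, 24 h post-dosing. Activity scored in the positive direction versus DMSO baseline.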

Read-out in assay [3]: Interleukin 2 (IL2), IL2 (gene 3558)
The assay is described as follows: BSK_BT_xIL2: BioMAP Diversity Plus: BT Assay for Interleukin 2 (IL2) Biomarker Activity (AID 2284245). Particulars: primary human B cells with PBMC. The procedure, abridged: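 Readout: supernatant IL-2 via Luminex xMAP after 24 h chemical dosing of a B cell/PBMC primary human co-culture. DMSO serves as negative control and baseline; increases in signal were fitted.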

Read-out in assay [4]: Basic fibroblast growth factor (bFGF), FGF2 (gene 2247)
The assay is described as follows: BSK_MyoF_bFGF: BioMAP Diversity Plus: MyoF Assay for Basic fibroblast growth factor (bFGF) Biomarker Activity (AID 2284246). Particulars: primary human lung fibroblasts. The procedure, abridged: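 Primary human lung fibroblast culture, 24 h compound exposure; ELISA read-out of bFGF. Positive-direction fit vs DMSO baseline. Cytotoxicity: SRB stain (0.1% SRB, 10% TCA fixation, 560 nm) in parallel wells.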

Read-out in assay [5]: Collagen IV, COL4A1 (gene 1282)
Kind of assay: BSK_MyoF_CollagenIV: BioMAP Diversity Plus: MyoF Assay for Collagen IV Biomarker Activity (AID 2284247). Particulars: primary human lung fibroblasts. The procedure, abridged:
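ELISA read-out of Collagen IV in lung fibroblast cultures, 24 h post-dosing; gain of signal relative to DMSO vehicle baseline defines activity.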

Read-out in assay [6]: Plasminogen activator inhibitor-1 (PAI1), SERPINE1 (gene 5054)
The assay is described as follows: BSK_MyoF_PAI1: BioMAP Diversity Plus: MyoF Assay for Plasminogen activator inhibitor-1 (PAI1) Biomarker Activity (AID 2284256).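 Also: PAI-1 protein level measured by ELISA in fibroblast cultures; PAI-1 read 24 h after compound addition.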 Particulars: primary human lung fibroblasts. The procedure, abridged:
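MyoF lung fibroblasts, human primary; compound 24 h; PAI-1 ELISA; positive-direction fit vs DMSO baseline; parallel SRB total-protein staining for cytotoxicity.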

Read-out in assay [7]: Interleukin-8 (IL8), CXCL8 (gene 3576)
Kind of assay: BSK_MyoF_IL8: BioMAP Diversity Plus: MyoF Assay for Interleukin-8 (IL8) Biomarker Activity (AID 2284261). To be noted: primary human lung fibroblasts. The procedure, abridged: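 Lung fibroblasts (human primary) → chemical exposure → 24 h → IL-8 measured by ELISA. Signal increase scored versus DMSO control.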

Read-out in the next assay: Decorin, DCN (gene 1634)
The assay is described as follows: BSK_MyoF_Decorin: BioMAP Diversity Plus: MyoF Assay for Decorin Biomarker Activity (AID 2284265). Particulars: primary human lung fibroblasts. A digest of the protocol: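 ELISA readout of decorin, 24 h post-dosing; primary human lung fibroblast (MyoF) culture; gain-of-signal fit vs DMSO baseline.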

Assay [8] in a line: BSK_MyoF_SRB: Viability Assessment in the BioMAP Diversity Plus: MyoF Assay (AID 2284267).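 Also: total protein by SRB absorbance in parallel cultures as cytotoxicity measure; cells assessed 24 h after compound addition.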 To be noted: primary human lung fibroblasts. A digest of the protocol: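 Lung fibroblast cultures, 24 h post-dose; fix 10% TCA, stain 0.1% SRB, read 560 nm. Signal = total protein as cytotoxicity measure; fitted relative to DMSO negative control.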
Read-out in assay [9]: Matrix Metallopeptidase 1 (MMP1), MMP1 (gene 4312)
Kind of assay: BSK_MyoF_MMP1: BioMAP Diversity Plus: MyoF Assay for Matrix Metallopeptidase 1 (MMP1) Biomarker Activity (AID 2284268). Particulars: primary human lung fibroblasts. The procedure, abridged:
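Cells: human lung fibroblasts. Exposure: 24 h chemical dosing. Detection: ELISA for MMP1. Analysis: upward fitting against DMSO negative control.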

Read-out in assay [10]: TIMP metallopeptidase inhibitor 1 (TIMP1), TIMP1 (gene 7076)
Kind of assay: BSK_MyoF_TIMP1: BioMAP Diversity Plus: MyoF Assay for TIMP metallopeptidase inhibitor 1 (TIMP1) Biomarker Activity (AID 2284269). Particulars: primary human lung fibroblasts. The procedure, abridged: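 ELISA quantified TIMP-1 levels after 24 h dosing of primary human lung fibroblasts, with DMSO as baseline. Parallel SRB total protein staining (0.1% SRB after TCA fixation, 560 nm) flagged overt cytotoxicity.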

Assay [11] is described as follows: CCTE_Mundy_HCI_hNP1_CellTiter: CCTE's Cell Titer-Glo 2 Assay in human neuroprogenitor cells for Viability, Mundy Lab (AID 2284241; active = hit-call score of the fitted dose curve at least 0.9, where 1 is the maximum;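 as to AC50: a hit is a drop in ATP luminescence versus DMSO meaning reduced viability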). A digest of the protocol:
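Human neural progenitor cells (hNP1, WA09-derived) were plated on poly-L-ornithine/laminin and grown 40 to 44 hours at 37 °C, 5% CO2 before chemical addition. Twenty-four hours later, ATP was measured by CellTiter-Glo luminescence; loss of signal versus DMSO indicates reduced viability.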
For orientation: In ATP-based viability assays light output follows the ATP content of the culture.

The nature of assay [12]: CCTE_Mundy_HCI_Cortical_Synap_Neur_Matur_NeuronCount: CCTE's Synaptogenesis and Neurite Maturation Assay in rat cortical cells for Neuron Count, Mundy Lab (AID 2284242; active = hit-call score of the fitted dose curve at least 0.9, where 1 is the maximum;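 also: neuron number from Hoechst nuclei and MAP2 staining by high-content imaging; hits reduce neuron count versus DMSO baseline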). The procedure, abridged: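 Rat cortical cultures; AraC DIV 5; chemical dosing + media change DIV 7 to DIV 12 (288.33 h readout). Fix, Hoechst, anti-MAP2/anti-synaptophysin immunostain; HCI neuron count vs DMSO baseline.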

The nature of assay [13]: IUF_NPC2c_oligodendrocyte_migration_120hr: Leibniz Research Institute for Environmental Medicine (IUF) 120-hour Neural Progenitor Cell Migration Assay for Oligodendrocyte Migration (NPC2c) (AID 2284297).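 Also: O4-positive oligodendrocyte migration distance divided by radial glia migration distance.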 A digest of the protocol:
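hNPC spheres (GW 16-19 cortex), PDL/laminin, DMEM/F12 3:1 + 1% N2, 37C. Dosing day 0–5, half feed day 3, DMSO ≤0.1%. Fixed 120 h; O4 ICC + Hoechst, HCI. Readout: mean oligodendrocyte distance from sphere edge / radial glia distance.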

Assay [14] can be described thus: IUF_NPC2a_radial_glia_migration_120hr: Leibniz Research Institute for Environmental Medicine (IUF) 120-hour Neural Progenitor Cell Migration Assay for Radial Glia Migration (NPC2a) (AID 2284298). A digest of the protocol: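 Hoechst-stained nuclei imaged at 120 h; algorithm maps sphere core by densest nuclei, sets migration edge at density threshold, gives radial glia migration distance (um) per well vs DMSO. hNPC spheres (0.3 mm), PDL/laminin, DMEM/F12 3:1 + 1% N2.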

Assay [15] is described as follows: IUF_NPC2a_radial_glia_migration_72hr: Leibniz Research Institute for Environmental Medicine (IUF) 72-hour Neural Progenitor Cell Migration Assay for Radial Glia Migration (NPC2a) (AID 2284299). A digest of the protocol: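 Readout: mean of four manual brightfield measurements of radial glia migration distance (um) at 72 h. hNPC spheres (0.3 mm) exposed to 7 compound concentrations plus solvent control on PDL/laminin, 37C, 5% CO2; activity fitted relative to DMSO.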

Assay [16] is described as follows: IUF_NPC2b_neuronal_migration_120hr: Leibniz Research Institute for Environmental Medicine (IUF) 120-hour Neural Progenitor Cell Migration Assay for Neuron Migration (NPC2b) (AID 2284300). The procedure, abridged: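 hNPC spheres, PDL/laminin, DMEM:F12 3:1 + 1% N2, 37C/5% CO2; 7 concentrations + solvent control (DMSO ≤0.1%), 5 d exposure, half-feed day 3. Fix 120 h, TUBB3 ICC, HCI: mean neuron migration distance ÷ glia distance.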

Assay [17] is described as follows: IUF_NPC3_neuronal_differentiation_120hr: Leibniz Research Institute for Environmental Medicine (IUF) 120-hour Neuronal Differentiation Assay (NPC3) (AID 2284301). A digest of the protocol: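 Value is percent TUBB3-positive neurons among Hoechst-stained nuclei in the migration area, scored by trained CNN after 120 h differentiation. Primary hNPC spheres on poly-D-lysine/laminin, N2 medium, continuous dosing from day 0, half-refeed day 3; DMSO reference.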

The nature of assay [18]: IUF_NPC4_neurite_length_120hr: Leibniz Research Institute for Environmental Medicine (IUF) 120-hour Neuronal Morphology Assay for Neurite Length (NPC4) (AID 2284302). A digest of the protocol:
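Neurite length, the mean in um across TUBB3-stained neurons, is derived by skeletonization of high-content images after 120 h differentiation. Compound exposure, 7 concentrations plus solvent control, ran from plating of hNPC spheres on poly-D-lysine/laminin, with medium half-replaced on day 3.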

Assay [19] is described as follows: CCTE_Mundy_HCI_hNP1_Casp3_7: CCTE's Caspase-Glo 3/7 Assay in human neuroprogenitor cells for Apoptosis, Mundy Lab (AID 2284240). A digest of the protocol: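 Apoptosis is scored by activated caspase-3/7 luminescence in WA09-derived neural progenitor cells, measured 26.5 h after chemical dosing. Values represent gain of signal relative to DMSO vehicle.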

Values joined by “and” are separate entries in the source; they are usually repeats but may differ in a detail not shown here. Equal entries are not always repeated. Only a part is listed here, and it is no random draw. Records with an inconclusive call do not appear. Active and inactive are the calls of the source. The calls were made as follows, unless noted: active = hit-call score of the fitted dose curve at least 0.9, where 1 is the maximum; inactive = score below 0.9.

`O=C(Cl)Oc1ccccc1`: the result in assay [1], in assay [2], in [3], in [4], in assay [5] and in assay [6] was inactive. The outcome in assay [7] was “inactive”; in the assay with Decorin, DCN (gene 1634), “inactive”; in assay [8], “inactive”; in assay [9] it was “inactive”; in assay [10], “inactive”.

Consider `CC(C)OP(=S)(OC(C)C)SCCNS(=O)(=O)c1ccccc1`, for which the AC50 in [11] was active: 65.7 µM and active: 41.5 µM; in assay [12], active: 50 µM and active: 89.7 µM; in assay [14] it was active: 52.2 µM. The call in [13], in [15], in assay [16], in assay [17] and in [18] was inactive.

On to `O=[N+]([O-])c1ccc([N+](=O)[O-])cc1`, for which the concentration at half-maximal activity (AC50) in [1] is active: 30.8 µM. The outcome was “inactive” in assay [2]; “inactive” in [4]; “inactive” in assay [5]; “inactive” in [6]; “inactive” in [7]; “inactive” with Decorin, DCN (gene 1634). The outcome in assay [8], in assay [9] and in assay [10] was inactive.

As to `CC(C)OP(=O)(OC(C)C)SCCNS(=O)(=O)c1ccccc1`, the outcome in assay [19], in [11], in [13], in assay [14], in assay [15] and in assay [16] was inactive. For the same compound, the call in assay [17] and in assay [18] was inactive.
